Experimental data: ChEMBL document CHEMBL4339250, “Polycerasoidol, a Natural Prenylated Benzopyran with a Dual PPARα/PPARγ Agonist Activity and Anti-inflammatory Effect” (J Nat Prod, 2019)

Tested on: HUVEC
Experiment: Anti-inflammatory activity in HUVEC assessed as reduction in TNFalpha-stimulated neutrophil-HUVEC interactions by measuring decrease in mononuclear leukocyte to endothelial cells pretreated for 20 hrs before TNFalpha stimulation for 24 hrs using freshly isolated mononuclear leukocytes perfused over endothelial monolayers for 5 mins by phase contrast microscopy
Format: functional, cell-based
Conditions: Homo sapiens

`C/C(=C\CC[C@]1(C)CCc2cc(O)cc(C)c2O1)CC/C=C(\C)C(=O)O` was tested, and the inhibition was “Dose-dependent effect”.
